Measured values taken from ChEMBL document CHEMBL1129509, “Hypoxia-selective antitumor agents. 12. Nitrobenzyl quaternary salts as bioreductive prodrugs of the alkylating agent mechlorethamine” (1996).

Tests used:
UV4 = test: Hypersensitivity factor is the ratio of IC50 for AA8/IC50 for UV4 cell line; details: Cricetulus griseus
EMT6 [1] = test: Hypersensitivity factor is the ratio of IC50 for AA8/IC50 for EMT6 cell line; details: Mus musculus
EMT6 [2] = test: Ratio of aerobic C10 to that of hypoxic C10 for EMT cells; details: Mus musculus
EMT6 [3] = test: Concentration to reduce EMT cell survival under hypoxic conditions (3h drug exposure) by clonogenic assay; details: Mus musculus
FME = test: Hypersensitivity factor is the ratio of IC50 for AA8/IC50 for FME cell line; details: Homo sapiens

SMILES	Hypersensitivity factor (UV4)	Hypersensitivity factor (EMT6 [1])	Ratio (EMT6 [2])	C10 (EMT6 [3])	Hypersensitivity factor (FME)
COc1ccc([N+](=O)[O-])c(C[N+](C)(CCCl)CCCl)c1	300	45	500	2.9 mM·h	26
C[N+](CCBr)(CCBr)Cc1ccccc1[N+](=O)[O-]	17	17	> 200	13 mM·h	56
Cc1ccc([N+](=O)[O-])c(C[N+](C)(CCCl)CCCl)c1	200	68	10	0.13 mM·h	19
COc1ccc(C[N+](C)(CCCl)CCCl)c([N+](=O)[O-])c1	435	54	3000	6.7 mM·h	27
CC(Cl)C[N+](C)(Cc1ccccc1[N+](=O)[O-])CC(C)Cl (stereo not given)	2.6	11	> 5.6	10 mM·h	118
